Each structure is given as a SMILES string. The entries are a selection whose mix differs from that of the whole data set. Some tests of the compounds listed are not included; inactive here does not mean inactive elsewhere. Records with an inconclusive call do not appear. Calls of active or inactive are those of the source. Calls come from the whole dose curve; as a rule, active = well fitted activation curve with a large enough effect; inconclusive = small, poorly fitted or top-dose-only effect, or another doubt; inactive = no such curve, though single readings can be large or run the other way; cell line not stated here.

A short description of this test: qHTS for Agonist of gsp, the Etiologic Mutation Responsible for Fibrous Dysplasia/McCune-Albright Syndrome: qHTS.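 Note: phosphodiesterase inhibitor Ro 20-1724 added with compounds to block cAMP breakdown; nearly all actives have a fitted effect of over 60% in size.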 As to conditions: gsp mutant cells, cAMP HTRF, 30 min; at 76.9 µM (top of the series) unless noted. In general terms: qHTS replaces the single test concentration by a dilution series.
For `CN(C)C1(CNC(=O)c2ccc(Br)cc2)CCCCC1`, the activation (cAMP increase) was inactive: -16.2% [at 15.4 µM].

In the case of `COc1cc(C(=O)NCC2(N(C)C)CCCCC2)c([N+](=O)[O-])cc1OC`, the activation (cAMP increase) is inactive: -23%. Consider `COc1ccc(Cl)cc1C(=O)NCC1(N(C)C)CCCCC1`, for which the activation (cAMP increase) was inactive: -5.32% [at 15.4 µM]. For `COc1cccc(C(=O)NCC2(N3CCCCC3)CCCCC2)c1`, the activation (cAMP increase) is inactive: -2.19% [at 15.4 µM]. As for `O=C(NCC1(N2CCCCC2)CCCCC1)c1cccc(Cl)c1`, the activation (cAMP increase) is inactive: 12.6%. With `O=C(OC1CN2CCC1CC2)C(CO)(c1ccccc1)c1ccccc1` (stereo not given), the activation (cAMP increase) is inactive: -71.7%. The figure for `C=C(C)C#CC(O)(C(=O)OC1CCN(C)CC1)c1ccccc1` (stereo not given) is inactive: -12.3%; for `COc1ccc(Br)c(C(=O)NCC2(N3CCCCC3)CCCCC2)c1` it is inactive: -2.39%; for `O=C(OCCN1CCCC1)C(O)(c1ccccc1)c1ccccc1` it is inactive: 23.3% [at 15.4 µM]. Under `CC(C)Oc1ccc(C(=O)NCC2(N(C)C)CCCCC2)cc1` stands inactive: 17.7% [at 15.4 µM]; under `CN(C)c1cccc(C(=O)NCC2(N(C)C)CCCCC2)c1`, inactive: -11.6%. The figure for `O=C(NCC1(N2CCCCC2)CCCCC1)c1cc([N+](=O)[O-])ccc1Cl` is inactive: 3.4% [at 15.4 µM]; for `COc1cc(SC)ccc1C(=O)NCC1(N(C)C)CCCCC1` it is inactive: -12.8%.

`CCN(CC)CC(C)C(C)OC(=O)C(O)(c1ccccc1)c1ccccc1` (stereo not given): the activation (cAMP increase) is inactive: -2% [at 15.4 µM].

Consider `CC(C)N1C(=O)CC2(CCN(CCOC(=O)C(O)(c3ccccc3)c3ccccc3)CC2)C1=O`, for which the activation (cAMP increase) was inactive: 0.127%. Take `Cc1ccc(C(=O)NCC2(N3CCCCC3)CCCCC2)cc1`: the activation (cAMP increase) was inactive: -11% [at 15.4 µM]. `CN(C)C1CCCC1OC(=O)C(O)(c1ccccc1)c1ccccc1` (stereo not given): the activation (cAMP increase) was inactive: 11.5%. Take `CN(C)c1ccc(C(=O)NCC2(N(C)C)CCCCC2)cc1`: the activation (cAMP increase) was inactive: 5.87% [at 15.4 µM]. As for `Cc1ccccc1C(=O)NCC1(N2CCCCC2)CCCCC1`, the activation (cAMP increase) is inactive: -80%. Turning to `O=C(NCC1(N2CCCCC2)CCCCC1)c1cc(F)c(F)cc1Cl`, the activation (cAMP increase) was inactive: 19.7% [at 15.4 µM]. Under `C=CCN1CCN(CCOC(=O)C(O)(c2ccccc2)c2ccccc2)CC1` stands inactive: 4.56%. For `COc1ccc(C(=O)NCC2(N(C)C)CCCCC2)cc1`, the activation (cAMP increase) is inactive: 5.71%. Take `O=C(NCC1(N2CCCCC2)CCCCC1)c1cccc(Br)c1`: the activation (cAMP increase) is inactive: -1.88%. With `Cc1cc(C(=O)NCC2(N3CCCCC3)CCCCC2)ccc1[N+](=O)[O-]`, the activation (cAMP increase) was inactive: 20%. The figure for `CCN1CCCC(OC(=O)C2(O)c3ccccc3C=Cc3ccccc32)C1` (stereo not given) is inactive: 18.3%.

Values taken from PubChem BioAssay AID624287 (National Center for Advancing Translational Sciences (NCATS), 2012).
